Experimental data published in patent publication US20200345804A1.

Target: recombinant BIR3 domain of cIAP1 with N-terminal 6xHis tag (Artificial Sequence)
Test: DELFIA displacement of AVPI-Biotin

AVPI
IC50: 289 nM
